Test results: patent US11584736B2, “Heterocyclic P2Y14 receptor antagonists” (The United States of America, as represented by the …, priority 2018, dated 2023)

Target: T1, hP2Y14R (Homo sapiens, UniProt Q15391)
T1 construct: expressed in transfected cells
T1 sequence (Q15391 1-338): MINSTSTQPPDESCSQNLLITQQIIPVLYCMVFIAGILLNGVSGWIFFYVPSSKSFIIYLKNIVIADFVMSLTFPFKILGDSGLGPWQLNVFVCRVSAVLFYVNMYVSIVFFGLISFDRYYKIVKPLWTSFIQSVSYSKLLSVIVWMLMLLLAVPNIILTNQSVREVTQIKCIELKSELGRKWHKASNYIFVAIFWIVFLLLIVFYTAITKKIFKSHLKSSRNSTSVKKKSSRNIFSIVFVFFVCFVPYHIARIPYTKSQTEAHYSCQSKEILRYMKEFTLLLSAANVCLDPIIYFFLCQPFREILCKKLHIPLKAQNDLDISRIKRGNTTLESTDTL
Test: Competitive fluorescent binding assay, flow cytometry of whole hP2Y14R-CHO cells
Details: Table 1, fluorescent antagonist tracer 20 nM, mean ± SEM (n = 3-5)
Description: Cell Culture: Chinese hamster ovary cells stably expressing the hP2Y14—R (CHO-hP2Y14R) were grown in Dulbecco's Modified Eagle's Medium (DMEM)/Ham's F12 (F12) 1:1 supplemented with 10% FBS, 100 units/mL penicillin, […] streptomycin, 2 mM L-glutamine and 0.500 mg/mL G418 Sulfate (Geneticin). Cells were maintained in a humidified atmosphere and sterile incubation conditions held at 37° C. and 5% CO2 (g).
Competitive Assay: Competitive fluorescent assays were performed on a BD FACSCalibur flow cytometer in conjunction with the softwares BD Bioscience PlateManager and CellQuest. All cell culture growth and assays for this procedure were conducted on flat-bottom 96-well plates. CHO-hP2Y14R cells were grown to approximately 80-90% confluency prior to assays. The 96-well plate format enabled four compounds to be analyzed in triplicate per run. All unlabeled ligand compounds are stored as 5 mM stock solutions in dimethyl sulfoxide (DMSO). Serial dilutions of each compound were prepared in complete medium. Cells were initially incubated with unlabeled compounds for 30 min at 37° C. and 5% CO2 (g). […]
IC50 values were determined from the gathered data with the program GraphPad Prism version 7.0.

Structure (SMILES): O=C(O)c1cc(-c2ccc(C3=CCNCC3)cc2)c2ccc(-c3ccc(C(F)(F)F)cc3)cc2c1 [Compound 3, 4-(4-(1,2,3,6-Tetrahydropyridin-4-yl)phenyl)-7-(4-(trifluoromethyl)phenyl)-2-naphthoic acid]
- IC50: 18 ± 2 nM
